Results published in PubChem BioAssay (NCI).
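Values below derive from 48-hour exposures of cells grown in 96-well plates, with endpoints linearly interpolated between the two concentrations bracketing the appropriate inhibition level. TGI denotes the concentration required for complete inhibition of growth.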

Columns and labels:
Assay in all cases: inhibition of tumour cell growth, NCI panel, 48 h
HOP-62 NSCLC = system: HOP-62 NSCLC
PC-3 prostate = system: PC-3 prostate
TK-10 renal = system: TK-10 renal
SK-MEL-2 melanoma = system: SK-MEL-2 melanoma
SR leukemia = system: SR leukemia
NCI/ADR-RES ovarian = system: NCI/ADR-RES ovarian
A498 renal = system: A498 renal
DU-145 prostate = system: DU-145 prostate
NCI-H226 lung = system: NCI-H226 lung
RPMI-8226 leukemia = system: RPMI-8226 leukemia
T-47D breast = system: T-47D breast
HL-60(TB) leukemia = system: HL-60(TB) leukemia
BT-549 breast = system: BT-549 breast
HCT-116 colon = system: HCT-116 colon
EKVX NSCLC = system: EKVX NSCLC
SF-539 CNS = system: SF-539 CNS
SK-OV-3 ovarian = system: SK-OV-3 ovarian
UO-31 renal = system: UO-31 renal
A549 NSCLC = system: A549 NSCLC
SNB-19 CNS = system: SNB-19 CNS
UACC-257 melanoma = system: UACC-257 melanoma
MDA-MB-435 = system: MDA-MB-435
OVCAR-4 ovarian = system: OVCAR-4 ovarian
NCI-H522 lung = system: NCI-H522 lung
HCT-15 colon = system: HCT-15 colon
UACC-62 melanoma = system: UACC-62 melanoma
COLO 205 colon = system: COLO 205 colon
SK-MEL-5 melanoma = system: SK-MEL-5 melanoma
ACHN renal = system: ACHN renal
SN12C renal = system: SN12C renal
CCRF-CEM leukemia = system: CCRF-CEM leukemia
SF-295 CNS = system: SF-295 CNS
HS 578T breast = system: HS 578T breast
MDA-MB-231 breast = system: MDA-MB-231 breast
LOX IMVI melanoma = system: LOX IMVI melanoma
MALME-3M melanoma = system: MALME-3M melanoma
K-562 leukemia = system: K-562 leukemia
M14 melanoma = system: M14 melanoma
U251 CNS = system: U251 CNS
KM12 colon = system: KM12 colon
IGROV1 ovarian = system: IGROV1 ovarian
OVCAR-3 ovarian = system: OVCAR-3 ovarian
HT29 colon = system: HT29 colon
SW-620 colon = system: SW-620 colon
SF-268 CNS = system: SF-268 CNS
OVCAR-8 ovarian = system: OVCAR-8 ovarian
786-0 renal = system: 786-0 renal
OVCAR-5 ovarian = system: OVCAR-5 ovarian
CAKI-1 renal = system: CAKI-1 renal
NCI-H23 lung = system: NCI-H23 lung
MOLT-4 leukemia = system: MOLT-4 leukemia
SK-MEL-28 melanoma = system: SK-MEL-28 melanoma
MCF7 breast = system: MCF7 breast

CN(C(=O)Cc1ccc(Cl)c(Cl)c1)[C@H]1CCCC[C@@H]1N1CC=CC1
TGI (HOP-62 NSCLC): > 100 µM
TGI (PC-3 prostate): > 100 µM
TGI (TK-10 renal): > 100 µM
TGI (SK-MEL-2 melanoma): > 100 µM
TGI (SR leukemia): > 100 µM
TGI (NCI/ADR-RES ovarian): > 100 µM
TGI (A498 renal): > 100 µM
TGI (DU-145 prostate): > 100 µM
TGI (NCI-H226 lung): > 100 µM
TGI (RPMI-8226 leukemia): > 100 µM
TGI (T-47D breast): > 100 µM
TGI (HL-60(TB) leukemia): > 100 µM
TGI (BT-549 breast): > 100 µM
TGI (HCT-116 colon): > 100 µM
TGI (EKVX NSCLC): > 100 µM
TGI (SF-539 CNS): > 100 µM
TGI (SK-OV-3 ovarian): > 100 µM
TGI (UO-31 renal): > 100 µM
TGI (A549 NSCLC): > 100 µM
TGI (SNB-19 CNS): > 100 µM
TGI (UACC-257 melanoma): 35.1 µM
TGI (MDA-MB-435): > 100 µM
TGI (OVCAR-4 ovarian): > 100 µM
TGI (NCI-H522 lung): > 100 µM
TGI (HCT-15 colon): > 100 µM
TGI (UACC-62 melanoma): 98.4 µM
TGI (COLO 205 colon): 87.4 µM
TGI (SK-MEL-5 melanoma): 39.2 µM
TGI (ACHN renal): > 100 µM
TGI (SN12C renal): > 100 µM
TGI (CCRF-CEM leukemia): > 100 µM
TGI (SF-295 CNS): 74 µM
TGI (HS 578T breast): > 100 µM
TGI (MDA-MB-231 breast): > 100 µM
TGI (LOX IMVI melanoma): > 100 µM
TGI (MALME-3M melanoma): 45.1 µM
TGI (K-562 leukemia): > 100 µM
TGI (M14 melanoma): > 100 µM
TGI (U251 CNS): > 100 µM
TGI (KM12 colon): > 100 µM
TGI (IGROV1 ovarian): > 100 µM
TGI (OVCAR-3 ovarian): > 100 µM
TGI (HT29 colon): > 100 µM
TGI (SW-620 colon): > 100 µM
TGI (SF-268 CNS): > 100 µM
TGI (OVCAR-8 ovarian): > 100 µM
TGI (786-0 renal): > 100 µM
TGI (OVCAR-5 ovarian): > 100 µM
TGI (CAKI-1 renal): > 100 µM
TGI (NCI-H23 lung): > 100 µM
TGI (MOLT-4 leukemia): > 100 µM
TGI (SK-MEL-28 melanoma): 82.9 µM
TGI (MCF7 breast): > 100 µM
